Assay results from ChEMBL document CHEMBL1148291, “Prediction of human volume of distribution values for neutral and basic drugs. 2. Extended data set and leave-class-out statistics” (J Med Chem, 2004).

Assay: Ionization constant (pKa)
Type: physicochemical

Q: For `COc1cc(Cc2cnc(N)nc2N)cc(OC)c1OC` [TRIMETHOPRIM], which pKa is on record?
A: Its pKa is 7.26.
